Assay results as given in ChEMBL document CHEMBL1153387 (J Med Chem, 2009).
pEC50, pIC50, pKi: −log10 of the molar value.

The chains behind the UniProt entries cited, without tags or fusion partners.
UniProt P30989, whole entry: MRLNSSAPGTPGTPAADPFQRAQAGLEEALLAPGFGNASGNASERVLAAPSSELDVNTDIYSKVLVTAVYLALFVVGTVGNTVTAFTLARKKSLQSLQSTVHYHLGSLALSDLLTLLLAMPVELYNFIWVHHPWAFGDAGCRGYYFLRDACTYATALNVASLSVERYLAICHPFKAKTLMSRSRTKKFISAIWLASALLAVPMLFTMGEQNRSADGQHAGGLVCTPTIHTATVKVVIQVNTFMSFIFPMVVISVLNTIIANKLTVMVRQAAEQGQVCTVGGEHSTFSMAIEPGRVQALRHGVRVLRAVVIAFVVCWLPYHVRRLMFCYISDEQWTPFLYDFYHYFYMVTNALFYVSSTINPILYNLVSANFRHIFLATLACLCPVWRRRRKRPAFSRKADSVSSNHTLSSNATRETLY

How the values were obtained:
[1] = target: T1, Neurotensin receptor type 1 (Homo sapiens, UniProt P30989); test: Displacement of [125I]I-Tyr(3)NT from human NTR1
[2] = target: T1, Neurotensin receptor type 1; test: Agonist activity at NTR1 in human HT-29 cells assessed as increase in intracellular calcium concentration by FLIPR assay; format: functional, cell-based

## CC[C@H](C)[C@H](NC(=O)[C@H](Cc1ccc(O)cc1)NC(=O)[C@@H]1CCCN1C(=O)[C@H](CCCNC(=N)N)NC(=O)[C@H](CCCNC(=N)N)NC(C)=O)C(=O)N[C@@H](CC(C)C)C(=O)O
[1]
  pIC50: 8.62
  pKi: 8.74
[2]
  pEC50: 8.72
